Measurements from ChEMBL document CHEMBL5518236, “Discovery of Clinical Candidate AZD5462, a Selective Oral Allosteric RXFP1 Agonist for Treatment of Heart Failure” (J Med Chem, 2024).
Active and inactive are the calls of the source.

Assays:
[1] = target: T1, Leucine-rich repeat-containing G-protein coupled receptor 4 (Homo sapiens) (UniProt Q9BXB1); assay: Agonist activity at human LGR4 measured upto 100 uM by Discovery X assay
T1 sequence (whole entry): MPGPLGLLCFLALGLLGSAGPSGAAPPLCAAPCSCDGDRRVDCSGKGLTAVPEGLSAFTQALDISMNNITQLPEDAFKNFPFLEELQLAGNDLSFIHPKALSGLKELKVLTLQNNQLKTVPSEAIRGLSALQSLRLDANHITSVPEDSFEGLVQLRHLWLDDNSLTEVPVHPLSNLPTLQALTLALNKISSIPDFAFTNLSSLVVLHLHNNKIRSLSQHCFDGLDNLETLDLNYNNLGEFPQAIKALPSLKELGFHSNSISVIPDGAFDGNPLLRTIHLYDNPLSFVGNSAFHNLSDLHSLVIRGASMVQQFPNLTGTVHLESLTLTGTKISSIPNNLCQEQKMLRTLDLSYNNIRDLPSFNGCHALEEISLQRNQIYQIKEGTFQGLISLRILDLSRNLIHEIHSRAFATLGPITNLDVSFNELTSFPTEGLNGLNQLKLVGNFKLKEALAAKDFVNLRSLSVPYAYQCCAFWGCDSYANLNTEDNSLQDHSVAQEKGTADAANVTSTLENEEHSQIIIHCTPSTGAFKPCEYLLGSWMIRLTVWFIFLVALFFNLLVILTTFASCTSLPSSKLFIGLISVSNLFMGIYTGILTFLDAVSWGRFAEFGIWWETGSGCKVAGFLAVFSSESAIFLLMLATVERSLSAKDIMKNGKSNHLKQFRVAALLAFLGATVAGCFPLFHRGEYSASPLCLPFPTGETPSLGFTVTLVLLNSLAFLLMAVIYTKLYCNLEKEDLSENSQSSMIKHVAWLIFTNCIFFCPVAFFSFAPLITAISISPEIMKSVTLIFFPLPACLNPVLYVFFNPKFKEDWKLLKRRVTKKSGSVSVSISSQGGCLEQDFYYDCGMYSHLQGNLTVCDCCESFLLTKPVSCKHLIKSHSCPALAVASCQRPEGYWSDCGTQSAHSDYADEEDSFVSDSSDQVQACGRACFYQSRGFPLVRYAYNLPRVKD

[2] = target: T2, Leucine-rich repeat-containing G-protein coupled receptor 5 (Homo sapiens) (UniProt O75473); assay: Agonist activity at human LGR5 measured upto 100 uM by Discovery X assay
T2 sequence (whole entry): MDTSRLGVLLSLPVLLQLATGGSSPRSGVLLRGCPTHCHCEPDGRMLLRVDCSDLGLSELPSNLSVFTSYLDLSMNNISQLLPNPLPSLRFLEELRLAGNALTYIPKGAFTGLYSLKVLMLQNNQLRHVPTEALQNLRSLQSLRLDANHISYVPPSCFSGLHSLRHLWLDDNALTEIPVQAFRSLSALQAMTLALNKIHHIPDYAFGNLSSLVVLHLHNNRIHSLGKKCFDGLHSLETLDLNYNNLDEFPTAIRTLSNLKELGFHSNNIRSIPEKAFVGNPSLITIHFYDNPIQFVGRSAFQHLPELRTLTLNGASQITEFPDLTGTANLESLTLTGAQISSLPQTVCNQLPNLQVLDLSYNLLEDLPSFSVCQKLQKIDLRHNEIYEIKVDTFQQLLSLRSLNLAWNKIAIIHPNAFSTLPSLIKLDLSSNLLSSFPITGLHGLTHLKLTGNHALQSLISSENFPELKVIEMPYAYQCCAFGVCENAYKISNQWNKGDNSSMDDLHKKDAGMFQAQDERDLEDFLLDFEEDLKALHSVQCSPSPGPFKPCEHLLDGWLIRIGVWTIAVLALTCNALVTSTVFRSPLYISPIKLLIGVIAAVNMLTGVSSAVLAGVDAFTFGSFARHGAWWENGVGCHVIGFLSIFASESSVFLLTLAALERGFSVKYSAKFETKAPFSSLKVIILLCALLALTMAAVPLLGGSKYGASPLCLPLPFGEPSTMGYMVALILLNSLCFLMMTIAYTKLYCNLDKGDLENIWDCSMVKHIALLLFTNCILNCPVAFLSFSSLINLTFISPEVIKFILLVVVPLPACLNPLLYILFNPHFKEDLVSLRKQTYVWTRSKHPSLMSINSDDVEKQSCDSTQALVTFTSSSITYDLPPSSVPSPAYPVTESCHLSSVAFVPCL

[3] = target: T3, Leucine-rich repeat-containing G-protein coupled receptor 6 (Homo sapiens) (UniProt Q9HBX8); assay: Agonist activity at human LGR6 measured upto 100 uM by Discovery X assay
T3 sequence (whole entry): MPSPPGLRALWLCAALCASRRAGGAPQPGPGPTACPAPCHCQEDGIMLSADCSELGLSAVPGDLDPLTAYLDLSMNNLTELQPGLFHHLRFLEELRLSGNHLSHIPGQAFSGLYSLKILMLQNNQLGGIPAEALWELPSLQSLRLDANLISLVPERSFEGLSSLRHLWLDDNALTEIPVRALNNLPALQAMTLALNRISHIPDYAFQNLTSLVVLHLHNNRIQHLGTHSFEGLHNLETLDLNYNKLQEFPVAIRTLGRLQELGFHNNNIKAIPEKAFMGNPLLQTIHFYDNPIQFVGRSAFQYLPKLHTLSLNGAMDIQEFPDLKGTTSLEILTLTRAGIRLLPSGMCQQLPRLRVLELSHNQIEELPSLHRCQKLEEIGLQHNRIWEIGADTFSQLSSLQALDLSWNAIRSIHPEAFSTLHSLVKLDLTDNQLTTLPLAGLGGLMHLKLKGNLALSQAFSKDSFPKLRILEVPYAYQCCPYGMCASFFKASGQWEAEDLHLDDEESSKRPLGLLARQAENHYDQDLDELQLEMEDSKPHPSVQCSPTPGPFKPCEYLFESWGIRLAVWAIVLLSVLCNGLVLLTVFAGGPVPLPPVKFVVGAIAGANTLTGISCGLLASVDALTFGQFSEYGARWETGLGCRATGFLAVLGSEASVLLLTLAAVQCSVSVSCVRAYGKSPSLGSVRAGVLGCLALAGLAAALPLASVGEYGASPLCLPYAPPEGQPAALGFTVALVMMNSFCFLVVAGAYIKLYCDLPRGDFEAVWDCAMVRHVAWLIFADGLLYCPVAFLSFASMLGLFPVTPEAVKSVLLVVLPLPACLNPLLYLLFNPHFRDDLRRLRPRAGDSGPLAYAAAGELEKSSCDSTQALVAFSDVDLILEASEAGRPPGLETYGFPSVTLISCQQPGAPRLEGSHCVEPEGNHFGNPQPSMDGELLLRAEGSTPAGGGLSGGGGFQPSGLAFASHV

[4] = target: T4, Follicle-stimulating hormone receptor (Homo sapiens) (UniProt P23945); assay: Agonist activity at human FSHR measured upto 100 uM by Discovery X assay; assay type: functional
T4 sequence (whole entry): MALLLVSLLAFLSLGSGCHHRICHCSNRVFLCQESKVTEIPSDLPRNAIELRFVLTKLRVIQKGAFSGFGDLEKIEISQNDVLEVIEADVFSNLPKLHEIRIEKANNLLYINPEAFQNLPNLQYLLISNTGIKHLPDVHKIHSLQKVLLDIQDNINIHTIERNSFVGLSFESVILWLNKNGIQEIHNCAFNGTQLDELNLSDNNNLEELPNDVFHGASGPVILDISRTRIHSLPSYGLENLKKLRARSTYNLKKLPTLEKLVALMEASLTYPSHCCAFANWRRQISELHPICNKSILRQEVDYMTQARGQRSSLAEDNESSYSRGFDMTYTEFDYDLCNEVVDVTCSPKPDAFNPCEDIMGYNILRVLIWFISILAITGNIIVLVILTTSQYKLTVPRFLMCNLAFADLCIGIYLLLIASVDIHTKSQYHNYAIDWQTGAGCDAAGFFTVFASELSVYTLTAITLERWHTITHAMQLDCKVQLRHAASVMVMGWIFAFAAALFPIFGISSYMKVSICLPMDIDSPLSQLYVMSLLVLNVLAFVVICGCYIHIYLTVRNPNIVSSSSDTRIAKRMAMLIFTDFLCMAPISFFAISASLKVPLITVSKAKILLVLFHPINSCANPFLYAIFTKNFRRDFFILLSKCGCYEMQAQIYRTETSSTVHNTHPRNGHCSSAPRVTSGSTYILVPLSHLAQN

Measured: Activity

COc1cc(F)c(O[C@H]2CC[C@@](C)(C(=O)O)CC2)cc1C(=O)N[C@@H]1[C@H]2CC[C@H](C2)[C@@H]1C(=O)NCC1(C)CCC1
inactive: all assays above

COc1cc(F)c(O[C@H]2CC[C@@](C)(C(=O)O)CC2)cc1C(=O)N[C@H]1[C@@H]2CC[C@@H](C2)[C@H]1C(=O)NCC1(C)CCC1
inactive: all assays above
